One block for each molecule: values may come before it.
Experiments:
Experiment in all cases: biochemical
Adenosine receptor A2a [1] = target: Adenosine receptor A2a (Rattus norvegicus, UniProt P30543)
Adenosine receptor A1 [2] = target: Adenosine receptor A1 (Rattus norvegicus, UniProt P25099)
Adenosine receptor A1 [3] = target: Adenosine receptor A1 (Homo sapiens, UniProt P30542)
Adenosine receptor A2a [4] = target: Adenosine receptor A2a (Homo sapiens, UniProt P29274)

Protein sequences, listed by entry. Tags and fused reporters are not part of them.
UniProt P30543, whole entry: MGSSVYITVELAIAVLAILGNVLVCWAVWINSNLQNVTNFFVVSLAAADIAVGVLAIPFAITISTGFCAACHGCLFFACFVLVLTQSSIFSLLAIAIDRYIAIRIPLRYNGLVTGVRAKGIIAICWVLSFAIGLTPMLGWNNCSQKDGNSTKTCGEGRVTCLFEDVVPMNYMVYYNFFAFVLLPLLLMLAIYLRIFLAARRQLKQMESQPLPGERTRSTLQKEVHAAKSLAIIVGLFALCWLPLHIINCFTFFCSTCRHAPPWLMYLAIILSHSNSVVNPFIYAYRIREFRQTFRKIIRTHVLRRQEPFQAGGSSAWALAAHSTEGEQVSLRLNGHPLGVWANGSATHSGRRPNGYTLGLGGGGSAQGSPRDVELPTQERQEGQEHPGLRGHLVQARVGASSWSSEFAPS
UniProt P25099, whole entry: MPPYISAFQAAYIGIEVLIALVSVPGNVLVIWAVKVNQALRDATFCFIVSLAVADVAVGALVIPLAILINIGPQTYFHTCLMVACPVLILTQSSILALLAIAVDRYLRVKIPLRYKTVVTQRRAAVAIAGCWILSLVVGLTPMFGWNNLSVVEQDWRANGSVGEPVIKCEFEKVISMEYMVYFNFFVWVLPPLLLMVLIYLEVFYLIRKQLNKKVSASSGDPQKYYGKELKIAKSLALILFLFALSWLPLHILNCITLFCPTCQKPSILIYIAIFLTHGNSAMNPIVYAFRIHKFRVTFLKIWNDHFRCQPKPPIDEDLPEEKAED
UniProt P30542, whole entry: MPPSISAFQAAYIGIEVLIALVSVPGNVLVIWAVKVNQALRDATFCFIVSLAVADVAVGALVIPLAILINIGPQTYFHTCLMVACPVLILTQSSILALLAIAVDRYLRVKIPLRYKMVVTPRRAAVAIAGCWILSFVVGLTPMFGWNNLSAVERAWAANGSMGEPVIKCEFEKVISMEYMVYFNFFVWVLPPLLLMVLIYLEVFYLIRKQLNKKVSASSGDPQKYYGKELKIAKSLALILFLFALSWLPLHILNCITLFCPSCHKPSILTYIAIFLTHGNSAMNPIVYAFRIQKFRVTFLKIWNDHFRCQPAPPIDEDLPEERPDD

Ki (Adenosine receptor A2a [1]): > 10000 nM
Structure (SMILES): CCCCn1c(=O)c2c(ncn2[C@@H]2O[C@H](C(=O)NC)[C@@H](O)[C@H]2O)n(CCCC)c1=O

Ki (Adenosine receptor A1 [2]): 9.4 nM
Structure (SMILES): OC[C@H]1O[C@@H](n2cnc3c(NCC4c5ccccc5-c5ccccc54)ncnc32)[C@H](O)[C@@H]1O

Structure (SMILES): CCNC(=O)[C@H]1O[C@@H](n2cnc3c(NC(=O)Nc4ccc(S(=O)(=O)N(C)C(C)C)cc4)ncnc32)[C@H](O)[C@@H]1O
Ki (Adenosine receptor A1 [3]): 325 nM
Ki (Adenosine receptor A2a [4]): > 1000 nM

Ki (Adenosine receptor A1 [3]): 231 nM
Structure (SMILES): O=C(Cc1ccccc1)Nc1nc2ccc(Cl)cc2c2nc(-c3ccco3)nn12

Reference: ChEMBL document CHEMBL2177029, “Medicinal chemistry of A₃ adenosine receptor modulators: pharmacological activities and therapeutic implications” (J Med Chem, 2012)
